The values that follow come from patent publication US6511963B1 (priority 1992, dated 2003).

By UniProt entry, the sequences of proteins in these tests, tags left out. Residues count along the entry.
UniProt Q00960, 27-1482: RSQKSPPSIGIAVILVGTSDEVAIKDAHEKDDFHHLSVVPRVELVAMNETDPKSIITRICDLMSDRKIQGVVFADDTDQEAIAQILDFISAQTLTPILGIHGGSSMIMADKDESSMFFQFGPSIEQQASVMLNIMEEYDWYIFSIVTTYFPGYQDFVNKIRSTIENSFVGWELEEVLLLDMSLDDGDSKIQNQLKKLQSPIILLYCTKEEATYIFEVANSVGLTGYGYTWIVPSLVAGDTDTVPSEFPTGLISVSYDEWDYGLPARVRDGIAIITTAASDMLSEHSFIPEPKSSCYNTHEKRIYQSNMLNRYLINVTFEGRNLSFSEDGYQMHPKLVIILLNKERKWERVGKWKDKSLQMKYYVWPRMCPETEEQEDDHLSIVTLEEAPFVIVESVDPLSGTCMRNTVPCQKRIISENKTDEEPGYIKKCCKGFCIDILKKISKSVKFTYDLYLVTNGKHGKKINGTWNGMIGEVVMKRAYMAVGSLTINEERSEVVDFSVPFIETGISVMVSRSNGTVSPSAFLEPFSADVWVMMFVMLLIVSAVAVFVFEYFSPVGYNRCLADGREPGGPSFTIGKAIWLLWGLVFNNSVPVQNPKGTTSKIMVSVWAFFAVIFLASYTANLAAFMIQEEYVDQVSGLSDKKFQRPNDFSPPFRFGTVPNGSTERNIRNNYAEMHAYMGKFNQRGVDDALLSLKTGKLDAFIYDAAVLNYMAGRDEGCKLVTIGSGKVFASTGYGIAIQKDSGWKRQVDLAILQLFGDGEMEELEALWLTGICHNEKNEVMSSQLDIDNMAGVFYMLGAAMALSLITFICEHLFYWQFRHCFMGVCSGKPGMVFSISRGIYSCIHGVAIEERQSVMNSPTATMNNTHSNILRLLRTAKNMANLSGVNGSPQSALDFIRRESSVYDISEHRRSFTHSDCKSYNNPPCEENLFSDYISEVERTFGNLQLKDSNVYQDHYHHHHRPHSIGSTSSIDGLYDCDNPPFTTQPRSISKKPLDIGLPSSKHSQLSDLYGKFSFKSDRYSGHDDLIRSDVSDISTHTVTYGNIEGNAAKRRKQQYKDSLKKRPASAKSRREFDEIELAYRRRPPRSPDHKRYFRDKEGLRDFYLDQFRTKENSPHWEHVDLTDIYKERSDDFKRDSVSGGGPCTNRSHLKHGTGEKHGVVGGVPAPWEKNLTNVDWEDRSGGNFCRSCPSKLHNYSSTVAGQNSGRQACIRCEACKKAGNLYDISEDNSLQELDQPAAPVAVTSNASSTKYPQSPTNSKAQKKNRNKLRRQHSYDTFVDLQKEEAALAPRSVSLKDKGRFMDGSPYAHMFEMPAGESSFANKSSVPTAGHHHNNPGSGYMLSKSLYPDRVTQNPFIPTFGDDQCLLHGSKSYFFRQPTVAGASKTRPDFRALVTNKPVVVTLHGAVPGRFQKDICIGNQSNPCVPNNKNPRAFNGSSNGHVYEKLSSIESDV

The test system of experiment [1] is NMDA receptor. The format is binding, rat.
In experiment [2] the target is T1, NMDA receptor (Rattus norvegicus, UniProt P35439+Q00960). Put plainly: biochemical. The format is binding. Set-up: other: test compound in the absence of spermine; concentration at 50% of maximum stimulation; % Sti; spermine = 100; other: with and without spermine; absence of spermine; % STI; absence.
In experiment [3] the target is T1, NMDA receptor. The format is binding. Set-up: rows headed: EC (μM); other: test compound in the absence of spermine; concentration at 50% of maximum stimulation; % Sti; spermine = 100; other: with and without spermine; EC50; absence of spermine; % STI; absence of.
The target of experiment [4] is strychnine-insensitive Gly site on the NMDA receptor complex (Rattus norvegicus, UniProt P35439). Put plainly: biochemical. The format is binding.
For experiment [5], the target named is polyamine-sensitive site of the NMDA receptor (Rattus norvegicus, UniProt P35439+Q00960). Put plainly: biochemical. The format is binding.
In experiment [6] the target is T1, NMDA receptor. The settings on record: forebrain membranes, 30 nM.

Where two headings read alike, the source gives them in different places.

Turning to `CC[C@H](C)[C@H](NC(=O)[C@H](CC(C)C)NC(=O)[C@H](CC(C(=O)O)C(=O)O)NC(=O)[C@H](CCC(N)=O)NC(=O)[C@H](CC(N)=O)NC(=O)[C@H](CC(C(=O)O)C(=O)O)NC(=O)[C@H](CCC(N)=O)NC(=O)[C@H](CC(C)C)NC(=O)[C@H](CC(C(=O)O)C(=O)O)NC(=O)[C@H](CC(C(=O)O)C(=O)O)NC(=O)[C@H](CCC(=O)O)NC(=O)CN)C(=O)N[C@@H](CCCNC(=N)N)C(=O)N[C@@H](CO)C(=O)N[C@@H](CCCCN)C(=O)N[C@@H](CO)C(=O)N[C@@H](CC(N)=O)C(N)=O` [Serl4-Con-G, GEggLQgNQgLIRSKSN], the “% Inh” value in the experiment on NMDA receptor [1] is 100%. In addition, at NMDA receptor [1] (read-out: Spermine IC), the IC50 was 160 ± 40 nM. Besides, the Emax at NMDA receptor [2] (read-out: % Sti) came to 0%. The “type of antagonism of NMDA receptor stimulation” value at NMDA receptor [3] is on record as “only antagonize the PA portion”.
For `CC[C@H](C)[C@H](NC(=O)[C@H](CC(C)C)NC(=O)[C@H](CC(C(=O)O)C(=O)O)NC(=O)[C@H](CCC(N)=O)NC(=O)[C@H](CC(N)=O)NC(=O)[C@H](CC(C(=O)O)C(=O)O)NC(=O)[C@H](CCC(N)=O)NC(=O)[C@H](CC(C)C)NC(=O)[C@H](CC(C(=O)O)C(=O)O)NC(=O)[C@H](CC(C(=O)O)C(=O)O)NC(=O)[C@H](CCC(=O)O)NC(=O)CNC(=O)[C@@H](N)Cc1ccc(OC(C)(C)C)cc1)C(=O)N[C@@H](CCCNC(=N)N)C(=O)N[C@@H](CC(C(=O)O)C(=O)O)C(=O)N[C@@H](CCCCN)C(=O)N[C@@H](CO)C(=O)N[C@@H](CC(N)=O)C(N)=O` [tBu-Tyr^o-Con-G, tBu-Y-GEggLQgNQgLIRgKSN], the “% INH” value with NMDA receptor [1] amounted to 29%. In addition, the “% Inh” value in the experiment with NMDA receptor [1] amounted to 29%. For the same compound, the IC50 at NMDA receptor [1] (read-out: IC50) and at NMDA receptor [1] (read-out: Spermine IC) was 1500 nM throughout. For the same compound, the Emax at NMDA receptor [2] (read-out: % STI) and on NMDA receptor [2] (read-out: % Sti) was 69% throughout.
`CC[C@H](C)[C@H](N)C(=O)N[C@@H](CCCNC(=N)N)C(=O)N[C@@H](CC(C(=O)O)C(=O)O)C(=O)N[C@@H](CCCCN)C(N)=O` [Con-G(12-15), IRgK]: in the experiment with NMDA receptor [1], the “% Inh” value is 0%. Moreover, the Emax at NMDA receptor [2] (read-out: % Sti) is roughly 20%.
`CC(C)C[C@H](NC(=O)[C@H](CC(C(=O)O)C(=O)O)NC(=O)[C@H](CC(C(=O)O)C(=O)O)NC(=O)[C@H](CCC(=O)O)NC(=O)CN)C(N)=O` [Con-G(1-5), GEggL]: the “% Inh” value with NMDA receptor [1] is on record as 50%. The IC50 on NMDA receptor [1] (read-out: Spermine IC) was determined as 7430 nM. The Emax at NMDA receptor [2] (read-out: % Sti) came out at 0%.
As to `CC[C@H](C)[C@H](NC(=O)[C@H](CC(C)C)NC(=O)[C@H](CC(C(=O)O)C(=O)O)NC(=O)[C@H](CCC(N)=O)NC(=O)[C@H](CC(N)=O)NC(=O)[C@H](CC(C(=O)O)C(=O)O)NC(=O)[C@H](CCC(N)=O)NC(=O)[C@H](CC(C)C)NC(=O)[C@H](CC(C(=O)O)C(=O)O)NC(=O)[C@H](CC(C(=O)O)C(=O)O)NC(=O)[C@H](CCC(=O)O)NC(=O)CNC(=O)[C@H](Cc1ccc(O)cc1)NC(C)=O)C(=O)N[C@@H](CCCNC(=N)N)C(=O)N[C@@H](CC(C(=O)O)C(=O)O)C(=O)N[C@@H](CCCCN)C(=O)N[C@@H](CO)C(=O)N[C@@H](CC(N)=O)C(N)=O` [Ac-Tyr^o-Con-G, AcY-GEggLQgNQgLIRgKSN], the “% Inh” value in the experiment on NMDA receptor [1] was 73%. Further, the IC50 at NMDA receptor [1] (read-out: Spermine IC) turned out to be 18300 nM. On NMDA receptor [2] (read-out: % Sti), the Emax stood at 0%.
In the case of `CC[C@H](C)[C@H](NC(=O)[C@H](CC(C)C)NC(=O)[C@H](CC(C(=O)O)C(=O)O)NC(=O)[C@H](CCC(N)=O)NC(=O)[C@H](CC(N)=O)NC(=O)[C@H](C)NC(=O)[C@H](CCC(N)=O)NC(=O)[C@H](CC(C)C)NC(=O)[C@H](CC(C(=O)O)C(=O)O)NC(=O)[C@H](CC(C(=O)O)C(=O)O)NC(=O)[C@H](CCC(=O)O)NC(=O)CN)C(=O)N[C@@H](CCCNC(=N)N)C(=O)N[C@@H](CC(C(=O)O)C(=O)O)C(=O)N[C@@H](CCCCN)C(=O)N[C@@H](CO)C(=O)N[C@@H](CC(N)=O)C(N)=O` [Ala7-Con-G, GEggLQANQgLIRgKSN], the IC50 in experiment [4] and in experiment [5] was greater than 2500 nM each time. Besides, on NMDA receptor [6], the “reduction of Gly-stimulated [3H]MK-801 binding” value was “about 20%”. Moreover, the Emax at NMDA receptor [2] (read-out: % Sti) was 0%.
